These results are taken from PubChem BioAssay AID1910 (Broad Institute, 2009).

Structures are written as SMILES. This is a selection; strong and weak results do not stand in their true shares. Activity calls are given as the source filed them.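 The calls were made as follows: active = mean activation of at least 10% of the iron chelator positive control signal, with at least half of replicates also reaching 10%; inconclusive = mean and replicate majority disagree about reaching 10%; inactive = mean and most replicates under 10%.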

The assay in a line: hypoxia response element reporter activation – cell-based, U2OS HRE-luciferase, luminescence, primary screen (AID 1910). Particulars: hits give high values, screened at 7.5 µM (by protocol), normalized: DMSO 0%, desferrioxamine 100%.
With `O=[As](O)(c1cccs1)c1cccs1`, the activation is inactive: -35.6%.
With `Cc1ccc(OCC(=O)OC2CN3CCC2CC3)cc1` (stereo not drawn) the figure was inactive: -2.75%; with `O=P1(Nc2ncccn2)COc2ccccc2OC1`, inactive: -0.223%.
With `CN(C)C1(CNC(=O)c2ccc(S(C)(=O)=O)cc2)CCCCC1` the figure was inactive: -0.277%.
As for `O=C(/C=C/c1ccccc1)OC1CN2CCC1CC2` (stereo not drawn), the activation was inactive: 0.535%.
For `Cc1ccc(C(=O)OC2CN3CCC2CC3)cc1` (stereo not drawn) the value was inactive: -0.909%.
With `CC1CCC(C(C)C)C(OP(=O)(Nc2ccccn2)c2ccccc2)C1` (stereo not drawn) the figure was inactive: -1.52%.
For `Cc1nn(-c2ccccc2)c2c1P(=O)(N1CCOCC1)N(C)C(c1ccccc1)=N2` (stereo not drawn) the value was inactive: -0.403%.
`CN(C(=O)Cc1ccc(Cl)c(Cl)c1)[C@@H]1CCCC[C@H]1N1CCCC1`: the activation is inactive: -0.271%.
With `CC(C)/C=N\N=C(\N)N[N+](=O)[O-]` the figure was inactive: 0.754%; with `CC1(CBr)Cn2c(nc3ccccc3c2=O)S1` (stereo not drawn), inactive: -0.357%; with `O=[As](O)(c1ccccc1Br)c1ccccc1Br`, inactive: -0.925%.
Consider `COc1ccccc1CNC(=O)COC(=O)C(O)(c1ccccc1)c1ccccc1`, for which the activation is inactive: -0.31%.
For `CC(C)(C)C(=O)NC(Sc1ncccn1)C(Cl)(Cl)Cl` (stereo not drawn) the value was inactive: -0.174%; for `Clc1n[nH]nc1-c1nn[nH][15n]1`, inactive: -0.0346%; for `CCOP(=O)(NC(=NC(C)c1ccccc1)NC(C)c1ccccc1)OCC` (stereo not drawn), inactive: -0.542%.
For `CCC1=CC2Cc3nc4ccc(Cl)cc4c(N)c3C(C1)C2` (stereo not drawn) the value was inactive: -0.361%; for `O=P1(Nc2ccccn2)COc2ccccc2OC1`, inactive: 0.402%; for `CN(CCCl)Cc1cc(Cl)c(NC2=NCCN2)c(Cl)c1`, inactive: 0.18%.
Take `CCOP(=O)(Nc1ccc(C)cn1)OCC`: the activation was inactive: -1.11%.
In the case of `CCC(C)N(CC(C)C)C(=S)SC(NC(C)=O)C(Cl)(Cl)Cl` (stereo not drawn), the activation is inactive: -0.432%.
With `O=C(OC1CN2CCC1CC2)c1cccc([N+](=O)[O-])c1` (stereo not drawn) the figure was inactive: 0.195%; with `CCOC(=O)c1ccc(NC(=O)C(C)(CCl)SC)cc1` (stereo not drawn), inactive: -0.232%; with `O=C(Nc1ccncc1[N+](=O)[O-])c1ccc([N+](=O)[O-])cc1[N+](=O)[O-]`, inactive: 1.76%.
For `O=C(COc1ccccc1)OC1CN2CCC1CC2` (stereo not drawn) the value was inactive: 0.136%; for `COP1(=S)c2c(C)nn(CCC#N)c2N=C(c2ccc(F)cc2)N1C` (stereo not drawn), inactive: 0.116%; for `Cc1cc(SC(NC=O)C(Cl)(Cl)Cl)ncn1` (stereo not drawn), inactive: -0.43%.
For `O=P(Nc1ccccn1)(c1cccc2ccccc12)c1cccc2ccccc12` the value was inactive: -0.788%.
